In paper PMC8123651, “Flavones from Combretum quadrangulare Growing in Vietnam and Their Alpha-Glucosidase Inhibitory Activity” (Molecules, 2021):

System: methicillin-resistant Staphylococcus aureus (MRSA)
Assay: Antibacterial activity, agar well diffusion method
Format: cell-based
Details: read-out: Diameter of inhibition zone
Experimental: Methicillin-resistant Staphylococcus aureus (MRSA), extended spectrum beta-lactamase-producing Escherichia coli (ESBL-producing E. coli) and the agar well diffusion method were used to evaluate the antibacterial activity of the isolated compounds [29]. The strains were cultured in nutrient broth at 37 °C for 18 h and diluted with steriled 0.9% NaCl to obtain the 1.5 × 10^8 CFU/mL bacterial solution. Then, 100 μL of the bacterial solution was spread on Mueller–Hinton agar (MHA) plate on which 8-mm wells were created aseptically with tips. The isolated compounds were dissolved in dimethyl sulfoxide at the concentration of 1 mg/mL and 50 μL of each compound solution was applied in each well. The plates were incubated at 37 °C for 16–18 h and the diameters of the inhibtion zones were measured. Dimethyl sulfoxide and apramycin were used as controls in this experiment.

Question: COc1cc(O)c2c(=O)c(O)c(-c3ccc(O)cc3)oc2c1 [Compound 4, rhamnocitrin] was tested. Which zone of inhibition at 50 µg/disc did it give?
Answer: 14 mm
